Measurements taken from PubChem BioAssay AID2097 (Broad Institute, 2009).
The entries are a selection whose mix differs from that of the whole data set. Activity calls are given as the source filed them.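 How the source made its calls: active means more than half of replicate wells score below -50%, meaning over 50% inhibition versus plate controls; inconclusive means some replicates but at most half score below -50%; inactive means no replicate scores below -50%.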

Chains of the proteins cited; added tags and fusions are not shown.
UniProt P49841, whole entry: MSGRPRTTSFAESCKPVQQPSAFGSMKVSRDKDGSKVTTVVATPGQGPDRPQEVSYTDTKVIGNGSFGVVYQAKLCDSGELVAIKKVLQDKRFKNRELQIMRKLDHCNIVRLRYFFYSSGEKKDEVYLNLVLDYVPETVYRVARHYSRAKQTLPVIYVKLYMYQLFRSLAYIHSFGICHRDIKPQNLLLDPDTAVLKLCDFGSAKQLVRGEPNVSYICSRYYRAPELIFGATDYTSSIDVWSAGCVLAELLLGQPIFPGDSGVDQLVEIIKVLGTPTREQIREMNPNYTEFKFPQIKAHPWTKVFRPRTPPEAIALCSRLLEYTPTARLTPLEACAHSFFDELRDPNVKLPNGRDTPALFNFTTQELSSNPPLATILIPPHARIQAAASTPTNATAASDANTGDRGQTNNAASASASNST

What follows are compounds tested against Glycogen synthase kinase-3 beta (Homo sapiens) (UniProt P49841) (assay: human GSK3beta kinase inhibitors, primary screen, biochemical, cell-free homogeneous, HTS (AID 2097;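 further: 0% = median DMSO wells and -100% = median GW8510 positive control wells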)). Conditions: GST-GSK3beta kinase, ADP-Glo luminescence, 60 min; at 10 µM; stronger effect = lower value.

Compound	activity score (negative = inhibition)
CN1CCC(Nc2ccc(F)c(Cl)c2)CC1	inactive: 0.487%
CCOc1ncccc1C(=O)NCC1(N2CCOCC2)CCCCC1	inactive: -1.28%
CCCOc1ccc(C(=O)NCC2(N(C)C)CCCCC2)cc1	inactive: 1.88%
O=C(O)C1(Nc2ccccc2)CCN(Cc2ccccc2)CC1	inactive: -1.48%
CC(C)(C)OC(=O)N1CCC(Nc2ccccc2)CC1	inactive: -1.11%
CCC(CO)(C(=O)OC1CN2CCC1CC2)c1ccccc1 (centres undefined)	inactive: -0.174%
COc1cccc(C(=O)N(c2cc(C)cc(C)c2)C2CCN(C(=O)OC(C)(C)C)CC2)c1	inactive: 2.26%
COc1cc(OC)cc(C(=O)NCC2(N3CCOCC3)CCCCC2)c1	inactive: 0.524%
CCCOc1ccc(C)cc1CN(CCCl)CCCl	inactive: 2.3%
CN1CCC(Nc2ccc(Cl)cc2)CC1	inactive: -0.783%
COc1cc(OC)cc(C(=O)NCC2(N3CCCCC3)CCCCC2)c1	inactive: 2.11%
Fc1ccccc1NC1CCN(Cc2ccccc2)CC1	inactive: 1.25%
Cc1ccc(C(=O)NCC2(N3CCCCC3)CCCCC2)o1	inactive: 4.16%
CCN1CCC(Nc2cccc(F)c2)CC1	inactive: -1.57%
CN(C)c1ccc(C(=O)NCC2(N3CCCCC3)CCCCC2)cc1	inactive: -2.07%
CC(C)(C)OC(=O)N1CCC(N(C(=O)c2ccccc2)c2ccc(Cl)cc2)CC1	inactive: 0.693%
N#Cc1ccc(C(=O)NCC2(N3CCCCC3)CCCCC2)cc1	inactive: 1.61%
CCCN1CCC(Nc2cc(OC)cc(OC)c2)CC1	inactive: 1.36%
c1ccc(CN2CCC(Nc3ccccc3)CC2)cc1	inactive: 1.91%
CN(C)C1(CNC(=O)c2cccc(C#N)c2)CCCCC1	inactive: 2.2%
COc1ccc(C(=O)NCC2(N3CCOCC3)CCCCC2)cc1OC	inactive: 1.35%
N/C(=N\O)c1c(N)no[n+]1[O-]	inactive: -1.57%
CCOC(=O)N1CCC(Nc2ccc(C)cc2)CC1	inactive: 1.76%
O=C(OC1CN2CCC1CC2)C1c2ccccc2C=Cc2ccccc21 (centres undefined)	inactive: -0.139%
CCc1cc(C(=O)NCC2(N3CCCCC3)CCCCC2)sc1C	inactive: 3.3%
CN(C)c1cccc(C(=O)NCC2(N3CCCCC3)CCCCC2)c1	inactive: 2.46%
COc1ccc(CN(CCCl)CCCl)cc1Cl	inactive: 1.93%
CC(C)c1ccc(NC2CCN(C(=O)OC(C)(C)C)CC2)cc1	inactive: 3.83%
COc1cc(OC)c(C(=O)NCC2(N(C)C)CCCCC2)cc1OC	inactive: -4.28%
